Target: CSNK1A1 (Homo sapiens (Human), UniProt P48729)
Assay: CSNK1A1 Assay 2 (ADP-Glo, 1 μM ATP)
Details: read-out: CSNK1A1 Assay 2 IC50 [mol/l] (median), comparison compounds of WO 2016/120196

Amino acid sequences for entries named in this document (tags omitted).
UniProt P48729, whole entry: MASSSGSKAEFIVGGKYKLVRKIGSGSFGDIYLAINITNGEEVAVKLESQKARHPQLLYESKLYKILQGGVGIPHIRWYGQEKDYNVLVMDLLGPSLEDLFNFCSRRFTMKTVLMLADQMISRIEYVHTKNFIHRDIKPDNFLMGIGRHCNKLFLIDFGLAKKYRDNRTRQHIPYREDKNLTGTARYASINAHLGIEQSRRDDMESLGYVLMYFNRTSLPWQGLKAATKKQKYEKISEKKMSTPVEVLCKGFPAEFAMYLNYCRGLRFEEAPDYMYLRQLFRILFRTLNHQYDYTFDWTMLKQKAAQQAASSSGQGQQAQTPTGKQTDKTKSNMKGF

CN1CCc2[nH]c(-c3ccnc(NC(=O)C4CC4)c3)c(Nc3ccccc3)c2C1=O was tested, and the IC50 was 4.51 nM.

Reference: US20230322767A1, “ARYL SUBSTITUTED PYRROLO-PYRIDINONES AND THERAPEUTIC USES THEREOF” (Bayer Aktiengesellschaft, priority 2020, published 2023)
